According to US20160051527A1, “METHODS AND KITS FOR TREATING AND CLASSIFYING INDIVIDUALS AT RISK OF OR SUFFERING FROM A NEUROLOGICAL DYSFUNCTION OR DISORDER” (priority 2013, published 2016):

Tested on: patients with a single variant in the ChAT gene (340L>F or 510R>Q)
Test: Treatment with an AChE inhibitor of patients carrying a ChAT gene variant
Assay type: in vivo, human

COc1cc2c(cc1OC)C(=O)C(CC1CCN(Cc3ccccc3)CC1)C2 (centres unmarked) [Aricept]
cognitive decline (second treated patient): reversal of cognitive decline
clinical benefit of treatment (two patients with ChAT variant, anecdotal): substantial anecdotal benefit
